Data from US11123341B2, “Butyrylcholinesterase inhibitors for treatment of opioid use disorder” (priority 2019, dated 2021).

Protein sequences, listed by entry. Tags and fused reporters are not part of them. Residues count along the entry.
UniProt P06276, 29-602 limits assumed: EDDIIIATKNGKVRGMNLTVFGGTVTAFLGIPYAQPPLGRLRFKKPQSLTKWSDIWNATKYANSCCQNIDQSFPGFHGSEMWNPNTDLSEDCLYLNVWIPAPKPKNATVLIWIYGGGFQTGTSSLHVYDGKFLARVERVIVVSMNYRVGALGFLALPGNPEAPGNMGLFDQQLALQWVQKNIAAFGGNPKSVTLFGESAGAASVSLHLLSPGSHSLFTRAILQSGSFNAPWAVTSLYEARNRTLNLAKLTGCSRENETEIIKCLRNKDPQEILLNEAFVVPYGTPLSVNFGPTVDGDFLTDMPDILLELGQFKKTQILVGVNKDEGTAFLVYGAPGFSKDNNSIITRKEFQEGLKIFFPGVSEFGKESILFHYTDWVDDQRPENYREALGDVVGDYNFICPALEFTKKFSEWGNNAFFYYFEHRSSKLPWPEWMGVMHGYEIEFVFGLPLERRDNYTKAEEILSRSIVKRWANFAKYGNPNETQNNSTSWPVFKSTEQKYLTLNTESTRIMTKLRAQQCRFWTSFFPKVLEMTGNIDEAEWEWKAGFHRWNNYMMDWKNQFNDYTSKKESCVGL
UniProt P35372, whole entry, looked up: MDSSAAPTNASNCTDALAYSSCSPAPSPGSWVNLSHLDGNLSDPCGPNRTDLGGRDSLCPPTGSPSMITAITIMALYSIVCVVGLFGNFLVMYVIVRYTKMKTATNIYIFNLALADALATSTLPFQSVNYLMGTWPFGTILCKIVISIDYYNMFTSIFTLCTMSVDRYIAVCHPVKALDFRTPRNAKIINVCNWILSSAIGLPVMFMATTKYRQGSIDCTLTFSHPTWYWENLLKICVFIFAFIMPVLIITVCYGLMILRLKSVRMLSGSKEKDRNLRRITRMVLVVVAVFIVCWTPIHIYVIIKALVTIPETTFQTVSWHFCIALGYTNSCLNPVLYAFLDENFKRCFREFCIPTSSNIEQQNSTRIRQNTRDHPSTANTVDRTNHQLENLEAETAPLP

Experiments:
BChE = BChE (Homo sapiens, UniProt P06276); test: Michaelis-Menten kinetic analysis of BChE-catalyzed hydrolysis of heroin (in vitro enzyme activity assay, RP-HPLC)
[1] = heroin versus morphine; cited from earlier work
[2] = pharmacokinetic model, cited from earlier work
μ-opiate receptors = μ-opiate receptors (Homo sapiens, UniProt P35372); conditions: qualitative comparison among heroin, 6-MAM and morphine; cited from earlier work

SMILES: CC(=O)C1(O)CC=C2C[C@@H]3[C@@H]4C=C[C@@](O)(C(C)=O)[C@@H]5OC1=C2[C@@]54CCN3C (stereo partly drawn)
- kcat for BChE-catalyzed hydrolysis of heroin (BChE; 0.1 M phosphate buffer pH 7.4, 37° C., triplicate): 30.67 s⁻¹
- Km (BChE; read-out: KM for BChE-catalyzed hydrolysis of heroin, 0.1 M phosphate buffer pH 7.4, 37° C., triplicate): 120 µM
- toxicity relative to morphine [1]: at least 10 fold
- rate constant for heroin hydrolysis to 6-MAM ([2]; in blood/plasma): 12.092 min⁻¹
- rate constant for direct heroin elimination [2]: 13.757 min⁻¹
- binding affinity with the μ-opiate receptors (μ-opiate receptors): significantly lower than that of morphine
